Read-out in assay [1]: Interleukin-8 (IL8), CXCL8 (gene 3576)
As to the kind of experiment: BSK_3C_IL8: BioMAP Diversity Plus: 3C Assay for Interleukin-8 (IL8) Biomarker Activity (AID 2283020). To be noted: actives raise or lower the signal; primary human endothelial cells (HUVEC). The essentials:
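Primary human umbilical vein endothelial cells were dosed for 24 h. IL-8 was quantified by ELISA and fitted bidirectionally against DMSO. Cytotoxicity was assessed in parallel cultures by SRB staining at 560 nm.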

Chains of the proteins cited; added tags and fusions are not shown. Lines headed by an entry give the natural chain unless they say otherwise; changes in a name come on top.
UniProt P11473: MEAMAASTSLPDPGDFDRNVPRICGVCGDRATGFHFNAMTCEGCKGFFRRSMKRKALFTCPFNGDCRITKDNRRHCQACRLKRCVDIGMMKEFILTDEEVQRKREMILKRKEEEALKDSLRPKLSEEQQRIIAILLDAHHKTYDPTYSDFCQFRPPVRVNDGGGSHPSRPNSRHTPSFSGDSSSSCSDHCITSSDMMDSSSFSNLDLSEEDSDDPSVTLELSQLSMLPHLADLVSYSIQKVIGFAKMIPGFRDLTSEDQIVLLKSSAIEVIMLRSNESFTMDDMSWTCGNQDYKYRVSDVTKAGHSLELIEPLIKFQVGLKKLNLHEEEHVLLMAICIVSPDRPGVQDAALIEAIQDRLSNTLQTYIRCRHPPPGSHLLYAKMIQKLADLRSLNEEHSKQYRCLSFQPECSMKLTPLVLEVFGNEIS

Read-out in assay [2]: Monokine induced gamma interferon (MIG), CXCL9 (gene 4283)
As to the kind of experiment: BSK_3C_MIG: BioMAP Diversity Plus: 3C Assay for Monokine induced gamma interferon (MIG) Biomarker Activity (AID 2283021).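 On AC50: MIG protein level measured by immunoassay in the treated endothelial cultures.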 To be noted: actives raise or lower the signal; primary human endothelial cells (HUVEC). The essentials:
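HUVEC primary endothelial cultures dosed with chemical; MIG quantified by ELISA at 24 h. Data fitted bidirectionally against DMSO control, with parallel SRB total-protein staining for cytotoxicity.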

Assay [3] has as its target human Vitamin D Receptor (VDR), VDR (gene 7421) (UniProt P11473). As to the kind of experiment: ATG_VDR_TRANS: Attagene TRANS-FACTORIAL HepG2 Assay for human Vitamin D Receptor (VDR) (AID 2283022; active means hit-call score of the fitted dose curve at least 0.9, where 1 is the maximum). The essentials:
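Transactivation by an exogenous VDR-Gal4 chimera in transiently transfected HepG2 cells was measured as reporter transcript level 24 hours after chemical treatment. RT-PCR products were analysed by capillary electrophoresis and fitted in the positive direction relative to DMSO.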

Assay [4] is described as follows: BSK_3C_SRB: Viability Assessment in the BioMAP Diversity Plus: 3C Assay (AID 2283023).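 Further: fitted both ways against DMSO so a hit may be signal rise or drop.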 To be noted: primary human endothelial cells (HUVEC). The essentials: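 Cytotoxicity readout in parallel HUVEC 3C cultures: after 24 h compound exposure, cells fixed with 10% TCA, stained with 0.1% SRB and read at 560 nm. Gain or loss relative to DMSO fitted.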
Read-out in assay [5]: Matrix Metallopeptidase 1 (MMP1), MMP1 (gene 4312)
As to the kind of experiment: BSK_BE3C_MMP1: BioMAP Diversity Plus: BE3C Assay for Matrix Metallopeptidase 1 (MMP1) Biomarker Activity (AID 2283024). To be noted: actives raise or lower the signal; primary human bronchial epithelial cells. The method, then: BSK_BE3C is a cell-based, multiplexed-readout assay that uses bronchial epithelial cell, a human lung primary cell, with measurements taken at 24 hours after chemical dosing in a 96-well plate.BSK_BE3C_MMP1 is an assay component measured in the BSK_BE3C assay. It measures MMP-1 antibody related to regulation of gene expression using ELISA technology.Data from the assay component BSK_BE3C_MMP1 was analyzed into 1 assay endpoint. This assay endpoint, BSK_BE3C_MMP1, was analyzed with bidirectional fitting relative to DMSO as the negative control and baseline of activity. Using a type of binding reporter, gain or loss-of-signal activity can be used to understand changes in the signaling as they relate to the gene MMP1. Furthermore, this assay endpoint can be referred to as a primary readout, because this assay has produced multiple assay endpoints where this one serves a signaling function. To generalize the intended target to other relatable targets, this assay endpoint is annotated to the protease intended target family, where the subfamily is matrix metalloproteinase.
The levels of cell surface (or secreted, indicated by the prefix "s") biomarker endpoints were measured by ELISA. Overt cytotoxicity to cells in confluent adherent cultures (all systems other than the BT system) was assessed by measuring total protein levels using sulforhodamine B (SRB) staining in parallel cultures at the time of biomarker measurements, indicated as SRB endpoints. For proliferation assays for adherent cell types, individual cell types are cultured at sub-confluence and relative cell numbers quantified by SRB staining at time points optimized for each system (48 h: 3C and CASM3C systems; 72 h: BT and HDF3CGF systems; 96 h: SAg system). SRB was performed by staining cells with 0.1% SRB after fixation with 10% TCA and reading wells at 560 nm.Viability and proliferation of PBMC (T cells) was quantified by Alamar Blue reduction for the SAg and BT systems. For PBMC viability (referred to as PBMC Cytotoxicity within the assay endpoint names), cells were plated (75,000/well in a 96-well plate) and then chemical samples added for 1 h before addition of activators, SEB and TSST-1 (20 ng/mL final concentration each). Cells were incubated for 90 h. Then, Alamar Blue (20 uL/well) (Invitrogen, Cat DAL1100) was added for 6 h, and the plates were read with a fluorescence microplate reader at 546/580 nm (excitation/emission). For PBMC proliferation, cells were plated and activated as above but incubated for only 16 h prior to addition of Alamar Blue. Plates were read after 6 h.

Assay [6] can be described thus: BSK_3C_Vis: BioMAP Diversity Plus: 3C Assay for Morphology Visualization (AID 2283025).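 Further: fitted both ways so gain or loss versus DMSO counts.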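 On AC50: light microscopy image of cell morphology used as background control.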 To be noted: primary human endothelial cells (HUVEC). A digest of the protocol: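 Human umbilical vein endothelial cell morphology was inspected by light microscopy 24 h after chemical dosing; scored bidirectionally relative to DMSO.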
Read-out in assay [7]: Pselectin, SELP (gene 6403)
Put plainly: BSK_4H_Pselectin: BioMAP Diversity Plus: 4H Assay for Pselectin Biomarker Activity (AID 2283026). To be noted: actives raise or lower the signal; primary human endothelial cells (HUVEC). A digest of the protocol: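 Primary human umbilical vein endothelial cells were treated 24 h, and cell-surface P-selectin was then quantified by ELISA. Bidirectional fit versus DMSO; cytotoxicity checked in parallel cultures by SRB total-protein staining.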

Assay [8] is described as follows: BSK_4H_SRB: Viability Assessment in the BioMAP Diversity Plus: 4H Assay (AID 2283027).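 Further: cells exposed to compound for 24 h before staining.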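 On AC50: curves fitted both ways versus DMSO so AC50 may be loss or gain.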 To be noted: primary human endothelial cells (HUVEC). A digest of the protocol: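 Human umbilical vein endothelial cells were dosed with chemical and, after 24 h, fixed with 10% TCA, stained with 0.1% sulforhodamine B, and read at 560 nm to give total protein as a cytotoxicity measure. Bidirectional fitting relative to DMSO control.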

Assay [9] can be described thus: BSK_BE3C_SRB: Viability Assessment in the BioMAP Diversity Plus: BE3C Assay (AID 2283028).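 On AC50: fitted both ways so AC50 may mark signal gain or loss versus DMSO.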 To be noted: primary human bronchial epithelial cells. A digest of the protocol:
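Cytotoxicity read-out: SRB (0.1%) staining of TCA-fixed (10%) human lung bronchial epithelial cells, absorbance 560 nm, 24 h post-dosing. Curves fitted both directions relative to DMSO.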

Read-out in assay [10]: Thrombomodulin, THBD (gene 7056)
As to the kind of experiment: BSK_3C_Thrombomodulin: BioMAP Diversity Plus: 3C Assay for Thrombomodulin Biomarker Activity (AID 2283029). To be noted: actives raise or lower the signal; primary human endothelial cells (HUVEC). A digest of the protocol: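 Human umbilical vein endothelial cells were exposed to chemicals for 24 h; cell-surface thrombomodulin quantified by ELISA, with bidirectional fitting against DMSO baseline.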

Several values for one entry are separate records, joined by “and”; a condition that tells them apart may be missing. Identical values can stand only once. This is a selection; strong and weak results do not stand in their true shares. Records with an inconclusive call do not appear. A structure can be active in one record and inactive in another. Activity calls are given as the source filed them. How the source made its calls, unless noted: active means hit-call score of the fitted dose curve at least 0.9, where 1 is the maximum; inactive means score below 0.9.

Regarding `O=[N+]([O-])c1ccc([N+](=O)[O-])cc1`, the result in [1], in assay [2], in assay [3], in [4], in [5] and in assay [6] was inactive. For the same molecule, the result in assay [7], in assay [8], in [9] and in [10] was inactive.

Consider `CC(C)OP(=S)(OC(C)C)SCCNS(=O)(=O)c1ccccc1`, for which the AC50 (usually the concentration at which the activity in the assay is half-maximal) is active: 29.9 µM and active: 30 µM and active: 31.1 µM in assay [1]; active: 31 µM and active: 33.7 µM in [2]; active: 5.56 µM in [5]; active: 15.2 µM and active: 39.8 µM and active: 37.2 µM in assay [6]; active: 31.4 µM and active: 29.4 µM and active: 29.5 µM in assay [7]; active: 26.3 µM and active: 14.4 µM and active: 28.5 µM in [8]. Further, the AC50 in assay [9] is active: 20 µM and active: 25 µM and active: 21.6 µM. In addition, the result in assay [2], in assay [5] and in [10] was inactive.

As to `CCCCO[P+](=O)OCCCC`, the molecule was called inactive in assay [3].

With `O=C(Cl)Oc1ccccc1`, the outcome in assay [1], in assay [2], in assay [3], in [4], in assay [6] and in assay [7] was inactive. Moreover, the outcome in assay [8], in assay [9] and in [10] was inactive. In addition, the AC50 in assay [5] is active: 0.0197 µM.

On to `CN(C(=O)Cc1cccc2occc12)[C@H]1CC[C@@]2(CCCO2)C[C@@H]1N1CCCC1`, for which the outcome in assay [1], in assay [2], in assay [3], in assay [4], in assay [5] and in assay [6] was inactive. The result in assay [7], in [8], in assay [9] and in assay [10] was inactive.

Regarding `O=[p+]1oc2ccccc2c2ccccc21` (stereo unspecified), the result in assay [3] was inactive.

With `O=C1C2CC=CCC2C(=O)N1SC(Cl)(Cl)C(Cl)Cl` (stereo unspecified), the AC50 was active: 29 µM in [2], active: 5.02 µM in assay [5], active: 13 µM in [6] and active: 14 µM in assay [7]. The molecule was called inactive in [3], in assay [9] and in assay [10].

Turning to `Cc1cc([N+](=O)[O-])cc([N+](=O)[O-])c1O`, the AC50 in [1] was active: 20 µM; in [6] it was active: 39 µM. The outcome in assay [2], in assay [3], in assay [4], in assay [5], in [7] and in [8] was inactive. Also, the result in assay [9] and in [10] was inactive.

For `ClP(Cl)c1ccccc1`, the outcome in [3] was inactive.

Turning to `CCCCC(CC)CO[P+](=O)OCC(CC)CCCC` (stereo unspecified), the outcome in [3] was inactive.

The record behind these values is PubChem BioAssay (EPA / NIEHS).
